For 1 molecule, IC50 results are on record in patent publication US20240307353A1, “JAK1 PATHWAY INHIBITORS FOR THE TREATMENT OF ASTHMA” (Incyte Corporation, priority 2023, published 2024).

The assay deals with human JAK1 (a.a. 837-1142) (Homo sapiens, UniProt P23458). The assay is described as follows: In vitro JAK kinase assay (HTRF), JAK1. It counts as biochemical. The following applies: 1 mM ATP. In general terms: Time-resolved FRET reads energy transfer from a long-lived donor to a nearby acceptor.

A word on the IC50: it is the concentration that gives 50% inhibition. A high value points to a need for much substance.

Some results are limits rather than exact numbers.

Molecule `CN(C)Cc1cc(F)cc(OC2CCN(CC(CC#N)n3cc(-c4ncnc5[nH]ccc45)cn3)CC2)c1` (single isomer, unassigned) [Compound 14, 4-(4-{3-[(dimethylamino)methyl]-5-fluorophenoxy}piperidin-1-yl)-3-[4-(7H-pyrrolo[2,3-d]pyrimidin-4-yl)-1H-pyrazol-1-yl]butanenitrile] came in with an IC50 of under 10 nM.
